Target: T1, human MerTK-human Fc fusion protein (human, UniProt Q12866 21-505)
T1 construct: range 21-505; Made in ExpiCHO-S cells; also called human MerTK-Fc protein; MerTK-Fc fusion protein; not shown: human IgG1 Fc as encoded by the pFUSE-hIgG1-Fc1 vector (InvivoGen)
T1 sequence (looked up): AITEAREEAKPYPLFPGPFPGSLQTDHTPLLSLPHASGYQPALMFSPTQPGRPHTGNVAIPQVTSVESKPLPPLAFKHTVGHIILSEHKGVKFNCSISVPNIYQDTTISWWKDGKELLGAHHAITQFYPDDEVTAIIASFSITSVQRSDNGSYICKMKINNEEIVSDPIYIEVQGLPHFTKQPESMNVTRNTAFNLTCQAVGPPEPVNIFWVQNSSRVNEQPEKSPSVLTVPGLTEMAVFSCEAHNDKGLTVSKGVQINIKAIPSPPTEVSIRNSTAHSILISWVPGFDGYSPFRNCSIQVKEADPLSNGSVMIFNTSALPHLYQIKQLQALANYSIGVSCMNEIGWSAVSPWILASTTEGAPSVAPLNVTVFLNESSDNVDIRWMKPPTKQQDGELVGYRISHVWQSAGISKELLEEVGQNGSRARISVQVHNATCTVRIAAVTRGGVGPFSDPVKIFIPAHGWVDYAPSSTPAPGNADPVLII
Assay: bridging ELISA: misfolded IgL on Ni-NTA plate, antibody, then biotinylated MerTK-Fc and streptavidin-HRP

B1: tA3-20_2A4_h1x (bispecific antibody, human IgG1, lambda, L234A L235A)
heavy 1: not shown
light 1: FMLTQPHSVSESPGKTVTISCTRSSGSIATNYVQWYQQRPGSSPTTVIYEDNQRPSGVPDRFSGSIDSSSNSASLTISGLKTEDEAVYHCQSYDSSNVVFGGGTKLTVLGQPKAAPSVTLFPPSSEELQANKATLVCLISDFYPGAVTVAWKADSSPVKAGVETTTPSKQSNNKYAASSYLSLTPEQWKSHRSYSCQVTHEGSTVEKTVAPTECS
heavy 2: not shown
light 2: DVVMTQTPLSLPVSLGDQASISCRSSQSLVHSTGNTYLHWYLQKPGQSPKLLIYKVSNRFSGVPDRFSGSGSGTYFTLKISRVEAEDLGVYFCSQSTHVPFTFGGGTKLEIKSSASTKGPSVFPLAPSSKSTSGGTAALGCLVKDYFPEPVTVSWNSGALTSGVHTFPAVLQSSGLYSLSSVVTVPSSSLGTQTYICNVNHKPSNTKVDKKVEPKSC
binding result: binds

Source: patent EP4786497A1 (Astellas Pharma Inc., dated 2026)
